pIC50: −log10 of the molar value.

The pIC50 is the negative decadic logarithm of the IC50, by convention in mol/L. Lower therefore signals a high IC50.

This test concerns the target T1, lipoxygenase (Rattus norvegicus, UniProt P12527).
T1 construct: the peritoneal cavities were lavaged and the polymorphonuclear leukocytes were recovered; endogenous in cells; host or cells: casein-elicited peritoneal polymorphonuclear leukocytes of Wistar male rats
T1 sequence (P12527 1-673): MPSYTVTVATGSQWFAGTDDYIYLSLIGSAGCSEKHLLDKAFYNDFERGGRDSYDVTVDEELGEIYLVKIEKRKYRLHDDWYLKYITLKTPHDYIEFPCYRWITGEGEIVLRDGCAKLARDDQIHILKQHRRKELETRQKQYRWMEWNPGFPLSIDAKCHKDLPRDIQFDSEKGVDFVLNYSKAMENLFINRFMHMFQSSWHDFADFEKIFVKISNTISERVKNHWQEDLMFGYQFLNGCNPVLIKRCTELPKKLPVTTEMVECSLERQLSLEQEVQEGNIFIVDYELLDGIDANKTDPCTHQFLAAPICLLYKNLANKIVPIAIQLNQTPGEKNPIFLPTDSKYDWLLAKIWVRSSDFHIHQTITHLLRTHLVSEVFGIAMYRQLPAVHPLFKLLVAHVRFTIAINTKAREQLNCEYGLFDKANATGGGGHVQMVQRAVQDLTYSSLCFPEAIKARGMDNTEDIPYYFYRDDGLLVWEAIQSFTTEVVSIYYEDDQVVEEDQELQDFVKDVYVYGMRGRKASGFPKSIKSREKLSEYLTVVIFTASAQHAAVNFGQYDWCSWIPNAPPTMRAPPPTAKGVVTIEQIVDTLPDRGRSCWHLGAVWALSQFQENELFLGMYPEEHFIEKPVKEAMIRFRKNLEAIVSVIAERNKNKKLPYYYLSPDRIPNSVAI
The experiment in a line: Test of lipoxygenase inhibitory action (production of leukotriene B4 in rat polymorphonuclear leukocytes). The class given is cell-based. The protocol: Using rat polymorphonuclear leukocytes, a test of the lipoxygenase inhibitory activity of the test compounds was determined the amount of production of leukotriene B4.
Wistar male rats (Japan Clea) were intraperitoneally administered with 12% sodium casein. After 16 hours, the peritoneal cavities were lavaged and the polymorphonuclear leukocytes were recovered. The obtained polymorphonuclear leukocytes were suspended in a phosphate buffer (137 mM NaCl, 3 mM KCl, 8 mM Na2HPO4, 2 mM KH2PO4) (2.5 × 10^5 cells/0.4 ml), then the incubation was carried out at 37°C for 10 minutes the test compound (final concentration 10^-5M) was added and then for 5 minutes after a calcium solution (10 mM CaCl2, 0.86% NaCl) 0.1 ml was added, then 1.25 µl of calcium ionophore (20 µM, A-23187) was added and the reaction started. Five minutes after the addition, 250 µl of methanol was added to stop the reaction. After the reaction was stopped, the resultant mixture was centrifuged for 20 minutes (4°C, 3000 rpm), then the amount of leukotriene B4 in the supernatant was measured by the EIA method (Cayman Co. kit).
As the test compound, the above mentioned Compound 1 to Compound 4, Compound 9 to Compound 11, Compound 22 to Compound 26, Compound 28, Compound 29, compound 32, Compound 33, and Compound 40 to Compound 48 were used. As the control, A-64077 was used.

Molecule `CC(c1cc2ccccc2s1)N(O)C(N)=O` (stereo not shown) [Compound A-64077, reference compound] showed a pIC50 of 6.00.
